## Yeast mating assay 1: variants of the scFv Ab-14

Source: Engelhart et al. 2022 (doi:10.1038/s41597-022-01779-4), MIT Lincoln Laboratory and A-Alpha Bio; data file from the FLAb repository.

The target is the same throughout: PDVDLGDISGINAS, from the HR2 region of SARS-CoV-2 spike.

Each scFv is VH, three GGGGS repeats, VL, as in the parent Ab-14, and differs from it in the CDRs of the heavy chain only.
VH: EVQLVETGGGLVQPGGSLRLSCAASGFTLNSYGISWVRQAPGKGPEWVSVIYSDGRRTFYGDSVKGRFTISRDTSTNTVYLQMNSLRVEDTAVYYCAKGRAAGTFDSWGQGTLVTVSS
VL: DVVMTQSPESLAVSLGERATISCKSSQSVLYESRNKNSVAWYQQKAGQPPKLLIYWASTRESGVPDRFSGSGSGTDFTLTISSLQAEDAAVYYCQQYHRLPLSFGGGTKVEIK

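In library AAYL49, one, two or three CDR residues were substituted; doubles and triples were drawn at random. The scFvs were displayed on barcoded MATa yeast, the peptide on MATalpha yeast. Mating (16 h, 30 °C) was followed by selection of diploids and sequencing of their barcodes. Scores were corrected for input abundance and mapped to Kd with protein pairs of known affinity run in the same pool. There are three technical replicates.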

Changes read parent residue, position, new residue, counted from the first residue of the VH shown.
This list gathers variants with a substitution at T58 (VH, numbered from residue 1).
Values are apparent Kd, the geometric mean of the replicates that gave a signal; lower means stronger binding.
A pair that was not seen in any replicate is written "not detected"; this usually means weak binding, but a binder can also be missed.
As a blank, each scFv also met three strains without target: over library AAYL49, 15% of these pairings were detected, typically at 11 µM and seldom below 680 nM.

changes,apparent Kd,seen in
T58F/T104I/F105E,500 nM,3 of 3
Y52N/T58C/A102S,190 µM,1 of 3
L29E/T58D/S107C,not detected,0 of 3
G26P/T58D/Y60F,120 µM,1 of 3
T58P/G99W,13 µM,2 of 3
F27H/T58E/T104Q,230 nM,3 of 3
L29S/T58V/F59D,20 µM,1 of 3
G33R/T58I/F105M,26 µM,3 of 3
T58V/F105D/D106W,not detected,0 of 3
Y32G/T58A/T104A,not detected,0 of 3
S35D/G55E/T58V,not detected,0 of 3
N30E/T58F,60 nM,3 of 3
T58N/D62H/G103V,not detected,0 of 3
G26A/Y52F/T58R,6.4 µM,2 of 3
G55T/T58K/G99P,84 µM,1 of 3
I34G/S53D/T58H,not detected,0 of 3
T58P/A101W/F105M,not detected,0 of 3
T58G/G61L/D106M,not detected,0 of 3
T58A/F59S,41 nM,3 of 3
T58G/G99T/T104Q,not detected,0 of 3
S35K/T58M/G61R,not detected,0 of 3
S31W/T58S/G103L,not detected,0 of 3
T58H/F59G/T104G,not detected,0 of 3
S31A/Y52D/T58K,8.9 µM,1 of 3
G26F/T58D,570 µM,2 of 3
R57M/T58P,5.2 µM,2 of 3
G55F/T58K/S107Q,31 µM,1 of 3
T58K/D62L/A101P,580 µM,1 of 3
I34L/T58D/F59P,not detected,0 of 3
S53V/T58K/G103R,not detected,0 of 3
R57W/T58I/F105M,1.8 µM,1 of 3
T58L/G61A/S63R,not detected,0 of 3
S35F/T58H/F105G,not detected,0 of 3
Y52H/T58C/T104K,4.5 µM,3 of 3
N30L/S35R/T58W,not detected,0 of 3
T58M/D106K/S107V,not detected,0 of 3
G33Q/T58I/D106M,not detected,0 of 3
G26A/Y52A/T58L,47 µM,2 of 3
V50K/T58K,not detected,0 of 3
L29G/T58K/G103F,24 µM,3 of 3
T58I/G99K/S107H,530 nM,3 of 3
I51G/T58L/T104A,not detected,0 of 3
S31V/T58F,55 µM,2 of 3
S53K/T58A/S63Y,17 µM,2 of 3
I51F/T58R/S107R,8.6 µM,2 of 3
T58M/D106W,110 nM,3 of 3
Y52V/D54K/T58F,not detected,0 of 3
N30R/T58F/Y60E,not detected,0 of 3
T58N/G99P,not detected,0 of 3
S31G/T58E/D106A,2.2 µM,1 of 3
S35I/V50E/T58I,13 µM,1 of 3
I51V/T58H,not detected,0 of 3
T58W/F59T/Y60A,not detected,0 of 3
S53Q/T58P/G61Q,820 µM,1 of 3
S53K/T58I/Y60P,5.9 µM,1 of 3
T28A/Y52I/T58Q,45 µM,1 of 3
L29W/T58E/A101C,not detected,0 of 3
N30Q/I51D/T58E,not detected,0 of 3
V50D/T58F,not detected,0 of 3
Y52T/T58W/A102F,not detected,0 of 3